Molecular target: receptor on murine NIH-3T3 fibroblast cells (ATCC No. CCL92) to which 125I-GRP binds (murine) (UniProt P21729)
Experiment: 125I-GRP at 0.45 pM on NIH-3T3 cells, no inhibitor, filter assay

## 125I-GRP (Amersham) (ligand)
  % BOUND: 5.9%
  AVG CPM BOUND: 3900 CPM

From patent publication US5578288, “Metal-binding targeted polypeptide constructs” (Cytogen Corporation, dated 1996)
